Results taken from US12251382B2, “Substituted amino-pyrimidine compound for use in a method for treatment and prevention of multiple sclerosis” (Merck Patent GmbH, priority 2018, dated 2025).

Key:
[1] = Phase I Part 2: plasma pharmacokinetics Day 1 and Day 14 of once daily dosing; assay type: in vivo, human; settings: median
Procedure: (§1) PK analysis was performed in all subjects who received at least one dose of evobrutinib and had at least one primary PK parameter evaluable by non-compartmental methods using PHOENIX® WINNONLIN® Version 6.3 (Certara LP, Princeton, N.J., US). Serial blood samples were obtained on Day 1 pre-dose and 0.25, 0.5, 1.0, 1.5, 2, 2.5, 3, 4, 5, 6, 8, 12, 16, 24 (Day 2), 36 (Day 2), and 48 h (Day 3) post-dose during Part 1, and used to prepare plasma samples for evobrutinib PK analysis. A similar sampling schedule was undertaken in Part 2 on Days 1 and 14, with additional trough samples obtained on Days 5, 8, 11, as well at Day 17 and 18.
(§2) PK samples were analyzed by Quintiles Bioanalytical and ADME Laboratory (Ithaca, N.Y., USA) using a validated bioanalytical liquid chromatographic assay with tandem mass spectrometric detection (UPLC-MS/MS) to determine evobrutinib concentration; the LLOQ of the assay was 0.1 ng/mL. Plasma evobrutinib concentrations and PK parameters were summarized descriptively. To test dose proportionality, PK parameters were analyzed graphically as AUC/dose and Cmax/dose and via a power model (PK parameter=α*dose^β) approach with log-transformed PK parameters as the dependent variable and log-transformed dose as the independent variable. Accumulation of evobrutinib and time dependency of PK parameters were evaluated for each dose level during Part 2 using a linear mixed-effect analysis of variance for log-transformed PK parameters with a fixed-repeated effect for day and random effect for subject.

[2] = Phase I Part 1: plasma pharmacokinetics after single oral dose; assay type: in vivo, human; settings: median
Procedure: as §1, §2

Measured: Tmax

C=CC(=O)N1CCC(CNc2ncnc(N)c2-c2ccc(Oc3ccccc3)cc2)CC1 [Evobrutinib, 1-(4-(((6-amino-5-(4-phenoxyphenyl)pyrimidin-4-yl)amino)methyl)piperidin-1-yl)prop-2-en-1-one]
30 min: [1]; multiple-dose study Day 1, 75 mg | [1]; multiple-dose study Day 1, 200 mg | [1]; multiple-dose study Day 14, 25 mg once daily | [1]; multiple-dose study Day 14, 75 mg once daily | [1]; multiple-dose study Day 14, 200 mg once daily | [2]; single dose 50 mg | [2]; single dose 100 mg | [2]; single dose 200 mg | [2]; single dose 500 mg
